Publication PMC10872542 (Structure (London, England : 1993), 2023)

By UniProt entry, the sequences of proteins in these tests, tags left out.
UniProt Q9XSM3, whole entry L475A: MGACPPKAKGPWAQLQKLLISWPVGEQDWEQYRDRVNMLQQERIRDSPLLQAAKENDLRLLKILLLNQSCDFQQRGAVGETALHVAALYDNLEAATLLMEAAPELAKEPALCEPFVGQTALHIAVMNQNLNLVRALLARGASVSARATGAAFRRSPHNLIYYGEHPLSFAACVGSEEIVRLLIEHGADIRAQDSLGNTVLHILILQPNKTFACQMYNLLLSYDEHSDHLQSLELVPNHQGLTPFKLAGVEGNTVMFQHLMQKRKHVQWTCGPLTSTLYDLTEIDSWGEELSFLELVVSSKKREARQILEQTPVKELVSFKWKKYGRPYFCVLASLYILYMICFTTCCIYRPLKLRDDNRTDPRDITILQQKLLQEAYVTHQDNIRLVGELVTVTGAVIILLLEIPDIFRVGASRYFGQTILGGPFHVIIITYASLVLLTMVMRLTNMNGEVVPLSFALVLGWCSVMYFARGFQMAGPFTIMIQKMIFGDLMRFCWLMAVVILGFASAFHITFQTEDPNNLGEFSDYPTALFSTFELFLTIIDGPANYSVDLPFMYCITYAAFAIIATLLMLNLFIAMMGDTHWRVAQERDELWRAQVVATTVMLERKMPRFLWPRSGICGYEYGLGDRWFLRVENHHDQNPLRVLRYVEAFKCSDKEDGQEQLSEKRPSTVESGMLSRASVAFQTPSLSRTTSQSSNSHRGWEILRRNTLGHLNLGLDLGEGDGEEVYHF
UniProt Q9XSM3, whole entry F472A: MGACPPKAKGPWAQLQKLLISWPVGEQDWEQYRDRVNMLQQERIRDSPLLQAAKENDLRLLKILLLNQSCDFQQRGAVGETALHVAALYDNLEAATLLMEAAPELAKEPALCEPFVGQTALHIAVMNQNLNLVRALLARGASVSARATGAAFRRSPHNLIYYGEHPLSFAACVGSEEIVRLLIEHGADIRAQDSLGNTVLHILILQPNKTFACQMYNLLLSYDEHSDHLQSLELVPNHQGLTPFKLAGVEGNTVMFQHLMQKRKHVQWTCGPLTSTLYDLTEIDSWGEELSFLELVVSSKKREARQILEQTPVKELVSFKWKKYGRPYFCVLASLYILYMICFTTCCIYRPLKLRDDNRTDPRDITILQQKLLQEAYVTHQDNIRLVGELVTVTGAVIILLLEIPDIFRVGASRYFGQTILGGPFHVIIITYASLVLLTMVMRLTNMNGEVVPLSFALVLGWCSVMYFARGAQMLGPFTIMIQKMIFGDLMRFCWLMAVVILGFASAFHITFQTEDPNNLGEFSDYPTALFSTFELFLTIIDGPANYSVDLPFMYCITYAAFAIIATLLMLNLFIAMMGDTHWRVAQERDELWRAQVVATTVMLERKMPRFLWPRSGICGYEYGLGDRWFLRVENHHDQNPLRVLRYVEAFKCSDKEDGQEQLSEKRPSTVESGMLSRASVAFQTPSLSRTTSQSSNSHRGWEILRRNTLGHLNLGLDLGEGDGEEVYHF

How the values were obtained:
[1] = molecular target: rbTRPV5 L475A mutant (Oryctolagus cuniculus, UniProt Q9XSM3, L475A); settings: 10 μM ECN, whole-cell patch clamp, n=6
[2] = molecular target: rbTRPV5 F472A mutant (Oryctolagus cuniculus, UniProt Q9XSM3, F472A); settings: 10 μM ECN, whole-cell patch clamp, n=6
[3] = molecular target: wild-type rbTRPV5 (Oryctolagus cuniculus, UniProt Q9XSM3); settings: wild-type TRPV5, 10 μM ECN, whole-cell patch clamp, n=7

- inhibition of monovalent currents [1]: ~ 25%
- inhibition of monovalent currents [2]: ~ 65%
- inhibition of monovalent currents [3]: ~ 100%
Structure (SMILES): Clc1ccc(COC(Cn2ccnc2)c2ccc(Cl)cc2Cl)cc1 (stereo not drawn) [econazole]
